From paper PMC2727864 (Molecular cancer therapeutics, 2008)

Biological target: T1, PDK1 PH domain (Homo sapiens, UniProt O15530)
T1 sequence (O15530 407-549): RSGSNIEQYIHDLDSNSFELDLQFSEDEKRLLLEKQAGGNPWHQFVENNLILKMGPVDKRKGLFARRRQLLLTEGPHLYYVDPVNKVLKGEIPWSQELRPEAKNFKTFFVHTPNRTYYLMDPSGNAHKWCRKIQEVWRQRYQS
Assay: Surface plasmon resonance
Type: binding

## CC1=NN(C(=O)c2ccc(Cl)cc2)C(=O)C1N=Nc1ccc(S(=O)(=O)Nc2ncccn2)cc1 (stereo not shown) [Compound 1, 4-[1-(4-Chlorobenzoyl)-3-methyl-5-oxo-4,5-dihydro-1H-pyrazol-4-ylazo]-N-pyrimidin-2-yl-benzenesulfonamide]
  Kd: 31.3 ± 9.54 µM
